Values of other authors as cited in US12128121B2, “Compositions comprising organo-silanol compounds, and applications” (EXSYMOL, priority 2020, dated 2024).
Read-outs that look alike come from different tables or passages of the source.

orthosilicic acid
concentration in water (as silicon, orthosilicic acid): < 56 mg Sill
concentration in water (limit before self-condensation): < 2 mM
